The values that follow come from patent US20050137807A1, “Method of visualization of the ADME properties of chemical substances” (priority 2003, published 2005).

Sequences of proteins named here, by UniProt entry; tags and fusion partners are left off. Residues count along the entry.
UniProt P02768, 25-609: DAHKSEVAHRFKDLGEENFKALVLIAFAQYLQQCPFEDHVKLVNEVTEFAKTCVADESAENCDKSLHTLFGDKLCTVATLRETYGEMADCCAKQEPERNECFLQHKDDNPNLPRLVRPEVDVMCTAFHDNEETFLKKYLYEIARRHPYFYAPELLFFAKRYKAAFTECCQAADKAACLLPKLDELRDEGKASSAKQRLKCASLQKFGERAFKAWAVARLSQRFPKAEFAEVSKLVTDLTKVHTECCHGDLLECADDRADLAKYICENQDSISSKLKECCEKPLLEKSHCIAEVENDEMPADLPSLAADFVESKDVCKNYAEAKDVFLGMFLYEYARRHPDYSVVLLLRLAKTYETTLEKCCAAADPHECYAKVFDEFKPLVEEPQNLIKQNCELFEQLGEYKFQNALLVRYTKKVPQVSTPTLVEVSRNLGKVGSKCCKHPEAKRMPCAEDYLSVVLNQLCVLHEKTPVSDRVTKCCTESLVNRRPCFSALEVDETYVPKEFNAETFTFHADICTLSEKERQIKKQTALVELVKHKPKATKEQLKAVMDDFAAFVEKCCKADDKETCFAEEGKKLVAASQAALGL

This series concerns the target human serum albumin (Homo sapiens, UniProt P02768). Nature of the series: binding constant to human serum albumin (TRANSIL technology). Conditions: log binding constant to human serum albumin.

As to Gentamicin, the LogHSA is on record as −2.469.
